Experiment [1] has as its target alpha1A adrenergic receptor (rat GSM) (Rattus norvegicus, UniProt P43140). The experiment is described as follows: [3H]-prazosin binding in rat submaxillary glands (GSM). Conditions: read-out: Inhibition of the binding of [3H]-prazosin IC50, alpha1A subtype, pH 7.4, 45 min, 25° C., tested form: HCl.
The target in experiment [2] is alpha1A + alpha1C adrenergic receptor (human prostate). In words: [3H]-prazosin binding in human prostate. Conditions: read-out: Inhibition of the binding of [3H]-prazosin IC50, alpha1A + alpha1C subtype, pH 7.5, 30 min, 25° C., tested form: HCl.
The target of experiment [3] is 5-HT2 receptors (isolated rabbit aorta) (Oryctolagus cuniculus, UniProt G1SYA7). In words: Antagonism of serotonin-induced contraction of isolated rabbit aorta. The following applies: 37° C., compound 10 min before agonist, limits (p < 0.05), tested form: HCl.
Experiment [4] has as its system anaesthetised normotensive rat. The experiment is described as follows: Hypotensive activity in the anaesthetised normotensive rat (IV). It is filed as in vivo. Conditions: IV bolus, tested form: HCl.
Experiment [5] deals with alpha1B adrenergic receptor (rat liver) (Rattus norvegicus, UniProt P15823). The experiment is described as follows: [3H]-prazosin binding in rat liver. Conditions: read-out: Inhibition of the binding of [3H]-prazosin IC50, alpha1B subtype, tested form: HCl.

Sequences of proteins named here, by UniProt entry; tags and fusion partners are left off. Residues count along the entry.
UniProt P43140, whole entry: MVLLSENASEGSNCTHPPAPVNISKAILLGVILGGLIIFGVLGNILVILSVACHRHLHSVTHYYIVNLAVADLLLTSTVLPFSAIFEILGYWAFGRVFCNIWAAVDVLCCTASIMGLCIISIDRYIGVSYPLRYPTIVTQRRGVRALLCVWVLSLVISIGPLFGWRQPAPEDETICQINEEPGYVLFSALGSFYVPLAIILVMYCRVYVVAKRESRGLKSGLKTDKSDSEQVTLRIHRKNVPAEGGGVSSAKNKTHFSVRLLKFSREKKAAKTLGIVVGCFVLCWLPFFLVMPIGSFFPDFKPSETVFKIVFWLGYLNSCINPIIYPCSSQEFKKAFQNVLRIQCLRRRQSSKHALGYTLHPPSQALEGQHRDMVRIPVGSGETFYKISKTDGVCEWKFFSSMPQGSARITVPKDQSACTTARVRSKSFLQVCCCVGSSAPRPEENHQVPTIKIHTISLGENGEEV
UniProt G1SYA7, 1-469: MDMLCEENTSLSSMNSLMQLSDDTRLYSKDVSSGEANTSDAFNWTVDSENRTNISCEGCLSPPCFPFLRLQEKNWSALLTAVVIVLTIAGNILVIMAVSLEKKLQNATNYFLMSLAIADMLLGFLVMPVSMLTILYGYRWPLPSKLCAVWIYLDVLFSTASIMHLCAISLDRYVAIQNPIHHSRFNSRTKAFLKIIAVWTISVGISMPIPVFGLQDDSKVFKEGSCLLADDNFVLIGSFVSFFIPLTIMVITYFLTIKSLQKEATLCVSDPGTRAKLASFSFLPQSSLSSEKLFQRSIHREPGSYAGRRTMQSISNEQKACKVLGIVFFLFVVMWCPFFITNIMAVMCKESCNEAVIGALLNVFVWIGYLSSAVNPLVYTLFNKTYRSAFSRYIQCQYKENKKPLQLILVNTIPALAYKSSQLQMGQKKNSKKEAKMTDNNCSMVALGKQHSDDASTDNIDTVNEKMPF
UniProt P15823, whole entry: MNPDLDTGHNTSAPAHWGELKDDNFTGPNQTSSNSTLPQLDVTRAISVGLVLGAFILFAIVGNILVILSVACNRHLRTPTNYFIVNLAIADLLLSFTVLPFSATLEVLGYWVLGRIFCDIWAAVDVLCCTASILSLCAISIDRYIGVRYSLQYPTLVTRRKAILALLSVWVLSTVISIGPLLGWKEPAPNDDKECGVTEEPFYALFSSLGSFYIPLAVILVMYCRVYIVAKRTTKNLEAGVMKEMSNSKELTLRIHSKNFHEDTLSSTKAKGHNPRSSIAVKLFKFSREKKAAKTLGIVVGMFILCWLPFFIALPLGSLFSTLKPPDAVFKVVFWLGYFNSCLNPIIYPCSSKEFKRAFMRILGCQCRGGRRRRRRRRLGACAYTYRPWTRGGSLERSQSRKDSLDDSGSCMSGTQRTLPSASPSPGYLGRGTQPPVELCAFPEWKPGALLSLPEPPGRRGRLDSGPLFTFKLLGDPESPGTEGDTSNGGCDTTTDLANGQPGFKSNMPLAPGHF

The IC50 is the point on the concentration scale where inhibition reaches its midpoint. As to `COc1cc2nc(N3CCC(c4cccc5ccccc45)CC3)nc(N)c2cc1OC`, the IC50 in experiment [1] is 88 nM; in experiment [2] it was > 100 nM; in experiment [5] it was 62 nM. Moreover, the “Inhibitory effect (IC50) on the contraction caused by 0.3 μM serotonin” value in experiment [3] is > 50 µg/mL. Besides, the “Reduction in mean arterial pressure ED30” value in experiment [4] (interval 0-30 min) is 1.00 mg/kg; in experiment [4] (interval 30-60 min), 1.83 mg/kg.

Values taken from patent US5985885A, “Quinazoline-4-amino-2-(piperidine-1-yl-4-substituted) derivatives having antihypertensive activity, a method for their preparation and their pharmaceutical use” (priority 1996, dated 1999).
